# Values of other authors in article PMC6013267 (Medicinal chemistry research : an international journal for …, 2018).
# System: amyloid β
# Details: ref Salloway et al. 2014, Doody et al. 2014, Siemers et al. 2016, cited from earlier work
substance,measurement,setting,value
Bapineuzumab: Anti-amyloid β monoclonal antibody,clinical outcome,mild to moderate AD,Did not improve clinical outcomes
same,Aβ plaque load (measured by PET imaging) before and after antibody treatment,,did not change significantly
